Experimental data published in US20240398727A1, “(S)-5-(1-(3,5-BIS(TRIFLUOROMETHYL)PHENOXY)ETHYL)CYCLOHEXANE-1,3-DIONE (NU-9) IMPROVES THE HEALTH OF DISEASED UPPER MOTOR NEURONS” (Northwestern University, priority 2021, published 2024).

Columns and labels:
[1] = tested on: UMNs from prpTDP-43^A315T-UeGFP mice; assay type: cell-based; conditions: prpTDP-43^A315T-UeGFP UMNs, 3 days in vitro, riluzole 500 nM, edaravone 1 μM
Source text: Mice. All animal procedures were approved by the Northwestern University Animal Care and Use committee and comply with the standards of the National Institutes of Health. All mice were on C57BL/6 background. Transgenic hemizygous males expressing a high copy number of the human SOD1 gene with a G93A mutation (B6SJL-Tg (SOD1*G93A)1Gur/J; The Jackson Laboratory) were bred to hemizygous UCHL1-eGFP females to generate hSOD1^G93A-UeGFP and WT-UeGFP (control) mice. UCHL1-eGFP mice were generated in the Ozdinler Lab; they are reporter lines for UMNs (Yasvoina, Genc et al. 2013), and are now available at Jackson Laboratory (stock no. 022476). Hemizygous UCHL1-eGFP females were bred to hemizygous prpTDP-43^A315T mice (procured from Jackson Laboratory, stock no. 010700) to generate prpTDP-43^A315T-UeGFP mice. prpTDP-43^A315T mice were supplied with gel diet (DietGel 76A, ClearH2O, ME, USA) to eliminate gastrointestinal (GI) complications. […]
UMNs were quantitatively analyzed for differences in neurite length and arborization complexity. Images taken with a 20× objective on the epifluorescent microscope (Nikon) were analyzed using the Neurite Tracer plugin from FIJI (NIH), which enables semi-autonomous tracing to measure the length of the axon. […]

[2] = literature value; cited from earlier work

Structure (SMILES): Nc1nc2ccc(OC(F)(F)F)cc2s1 [riluzole, 2-Amino-6-(trifluoromethoxy)benzothiazole]
- average length of the axons of UMNs ([1]; NU-9 400 nM, SFM control 199.52±21.15 μm, WT 321.41±17.54 μm): 292.60±28.03 μm
- percentage of UMNs with axons in the range of 200-399 μm [1]: 68%
- concentration reported to be present in the CNS after the optimum dose used in clinical trials [2]: 500 nM
